The values below come from PubChem BioAssay AID454 (Sanford-Burnham Center for Chemical Genomics, 2006).

The structures appear in SMILES notation. This is a selection; strong and weak results do not stand in their true shares. The source made the active and inactive calls.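 The calls were made as follows: active = compound among top-ranked inhibitors of TNF-induced VCAM-1 adhesion protein staining, with the hit upheld by image or statistical review; inactive = the rest, including hits rejected on review.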

The experiment in a line: suppression of endothelial VCAM-1 upregulation – cell-based, plate reader, pooled HUVEC, TNFa stimulus (AID 454). As to conditions: HUVEC TNFa-induced VCAM-1 surface immunofluorescence.
As for `Fc1ccccc1NC1CCN(Cc2ccccc2)CC1`, the result was inactive.
